Like-named read-outs stand apart in the source and are kept apart here.
What was measured:
[1] = target: MAO-B (Rattus norvegicus, UniProt P19643); conditions: 10 days; for % Inhibition MAO-B, calculated from activity (nmol/hour/mg protein) / % Inhibition MAO-B, calculated from dpm / MAO-B activity, Retina / MAO-B dpm ± sd / MAO-B nmol/hour/mg protein ± sd / Percent of MAO-B Inhibition, Retina: rat retina
Protocol: (§1) Rats were sacrificed 2-3 hours after last administration. According to preliminary experiment, in order to obtain enough substance for MAO and protein analysis, 4 retinas (from 2 rats) were combined into one sample, (3 retina samples for MAO per each dose groups). The 6 brains and 6 livers were analyzed separately.

Chains of the proteins cited; added tags and fusions are not shown.
UniProt P19643, whole entry: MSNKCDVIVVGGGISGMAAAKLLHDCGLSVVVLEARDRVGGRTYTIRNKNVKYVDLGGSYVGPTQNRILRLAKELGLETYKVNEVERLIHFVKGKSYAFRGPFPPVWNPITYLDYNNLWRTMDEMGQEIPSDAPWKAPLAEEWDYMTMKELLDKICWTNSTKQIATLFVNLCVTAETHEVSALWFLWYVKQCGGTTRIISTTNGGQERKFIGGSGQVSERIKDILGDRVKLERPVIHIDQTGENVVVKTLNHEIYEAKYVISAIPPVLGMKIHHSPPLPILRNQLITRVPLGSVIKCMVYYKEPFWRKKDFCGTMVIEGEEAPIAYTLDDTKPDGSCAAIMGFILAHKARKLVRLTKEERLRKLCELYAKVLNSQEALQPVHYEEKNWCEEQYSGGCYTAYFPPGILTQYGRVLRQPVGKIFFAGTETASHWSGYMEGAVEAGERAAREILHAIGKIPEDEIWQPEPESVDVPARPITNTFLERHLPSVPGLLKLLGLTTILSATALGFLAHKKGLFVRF
UniProt P21396, whole entry: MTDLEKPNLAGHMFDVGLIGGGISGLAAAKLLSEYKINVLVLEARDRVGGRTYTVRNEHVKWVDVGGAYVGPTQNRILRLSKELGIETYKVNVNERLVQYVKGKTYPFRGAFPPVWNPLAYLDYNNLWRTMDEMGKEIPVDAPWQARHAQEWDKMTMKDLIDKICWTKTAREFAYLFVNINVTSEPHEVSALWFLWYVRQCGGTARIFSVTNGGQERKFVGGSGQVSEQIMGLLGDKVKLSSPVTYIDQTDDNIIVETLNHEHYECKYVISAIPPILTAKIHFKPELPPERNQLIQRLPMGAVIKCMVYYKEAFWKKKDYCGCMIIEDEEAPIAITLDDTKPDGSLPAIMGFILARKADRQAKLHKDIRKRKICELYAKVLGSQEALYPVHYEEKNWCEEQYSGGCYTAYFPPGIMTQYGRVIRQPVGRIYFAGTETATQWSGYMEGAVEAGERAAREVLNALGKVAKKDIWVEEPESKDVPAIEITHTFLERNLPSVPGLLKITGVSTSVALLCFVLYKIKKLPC

[2] = target: MAO-A (Rattus norvegicus, UniProt P21396); conditions: 10 days; for Percent of MAO-A Inhibition, Brain: rat brain; for Percent of MAO-A Inhibition, Liver: rat liver; for % Inhibition MAO-A, calculated from activity (nmol/hour/mg protein) / % Inhibition MAO-A, calculated from dpm / MAO-A activity, Retina / MAO-A dpm ± sd / Percent of MAO-A Inhibition, Retina / MAO-A nmol/hour/mg protein ± sd: rat retina
Protocol: as §1

[3] = P.O 0.41 mg/kg/day, group 7, vs water control
[4] = eye drops 0.0165 mg/kg/day, group 6
[5] = eye drops 0.0165 mg/kg/day, group 6, vs mannitol control
[6] = eye drops 0.08 mg/kg/day, group 5
[7] = eye drops 0.08 mg/kg/day, group 5, vs mannitol control
[8] = eye drops 0.4 mg/kg/day, group 4
[9] = eye drops 0.4 mg/kg/day, group 4, vs mannitol control
[10] = eye drops 2.0 mg/kg/day, group 3
[11] = eye drops 2.0 mg/kg/day, group 3, vs mannitol control
[12] = eye drops 7.9 mg/kg/day, group 2
[13] = eye drops 7.9 mg/kg/day, group 2, vs mannitol control

C#CCN[C@@H]1CCc2ccccc21 [Rasagiline, R(+)—N-propargyl-1-aminoindan]
Percent of MAO-B Inhibition, Brain ([1]; rat brain, P.O 0.41 mg/kg/day, group 7, vs water control): 98%
Percent of MAO-B Inhibition, Brain ([1]; rat brain, eye drops 0.0165 mg/kg/day, group 6, vs mannitol control): 70%
Percent of MAO-B Inhibition, Brain ([1]; rat brain, eye drops 0.08 mg/kg/day, group 5, vs mannitol control): 95%
Percent of MAO-B Inhibition, Brain ([1]; rat brain, eye drops 0.4 mg/kg/day, group 4, vs mannitol control): 98%
Percent of MAO-B Inhibition, Brain ([1]; rat brain, eye drops 2.0 mg/kg/day, group 3, vs mannitol control): 99%
Percent of MAO-B Inhibition, Brain ([1]; rat brain, eye drops 7.9 mg/kg/day, group 2, vs mannitol control): 99%
inhibition of brain MAO-B ([1]; rat brain, intraocular 0.0165 mg/kg/day): does inhibit
Percent of MAO-B Inhibition, Liver ([1]; rat liver, P.O 0.41 mg/kg/day, group 7, vs water control): 98%
Percent of MAO-B Inhibition, Liver ([1]; rat liver, eye drops 0.0165 mg/kg/day, group 6, vs mannitol control): 8%
Percent of MAO-B Inhibition, Liver ([1]; rat liver, eye drops 0.08 mg/kg/day, group 5, vs mannitol control): 73%
Percent of MAO-B Inhibition, Liver ([1]; rat liver, eye drops 0.4 mg/kg/day, group 4, vs mannitol control): 93%
Percent of MAO-B Inhibition, Liver ([1]; rat liver, eye drops 2.0 mg/kg/day, group 3, vs mannitol control): 95%
Percent of MAO-B Inhibition, Liver ([1]; rat liver, eye drops 7.9 mg/kg/day, group 2, vs mannitol control): 98%
inhibition of liver MAO-B ([1]; rat liver, intraocular 0.0165 mg/kg/day): does not inhibit
% Inhibition MAO-B, calculated from activity (nmol/hour/mg protein) ([1]; P.O 0.41 mg/kg/day, group 7): 98%
% Inhibition MAO-B, calculated from dpm ([1]; P.O 0.41 mg/kg/day, group 7): 98%
MAO-B activity, Retina ([1]; P.O 0.41 mg/kg/day, group 7): 28 ± 10
MAO-B dpm ± sd ([1]; P.O 0.41 mg/kg/day, group 7): 28 ± 10 dpm
MAO-B nmol/hour/mg protein ± sd ([1]; P.O 0.41 mg/kg/day, group 7): 0.04 ± 0.01 nmol/hour/mg protein
Percent of MAO-B Inhibition, Retina [1, 3]: 98%
% Inhibition MAO-B, calculated from activity (nmol/hour/mg protein) [1, 4]: 88%
% Inhibition MAO-B, calculated from dpm [1, 4]: 91%
MAO-B activity, Retina [1, 4]: 60 ± 24
MAO-B dpm ± sd [1, 4]: 60 ± 24 dpm
MAO-B nmol/hour/mg protein ± sd [1, 4]: 0.10 ± 0.04 nmol/hour/mg protein
Percent of MAO-B Inhibition, Retina [1, 5]: 91%
% Inhibition MAO-B, calculated from activity (nmol/hour/mg protein) [1, 6]: 95%
% Inhibition MAO-B, calculated from dpm [1, 6]: 96%
MAO-B activity, Retina [1, 6]: 25 ± 3
MAO-B dpm ± sd [1, 6]: 25 ± 3 dpm
MAO-B nmol/hour/mg protein ± sd [1, 6]: 0.04 ± 0.01 nmol/hour/mg protein
Percent of MAO-B Inhibition, Retina [1, 7]: 96%
% Inhibition MAO-B, calculated from activity (nmol/hour/mg protein) [1, 8]: 98%
% Inhibition MAO-B, calculated from dpm [1, 8]: 98%
MAO-B activity, Retina [1, 8]: 11 ± 9
MAO-B dpm ± sd [1, 8]: 11 ± 9 dpm
MAO-B nmol/hour/mg protein ± sd [1, 8]: 0.01 ± 0.01 nmol/hour/mg protein
Percent of MAO-B Inhibition, Retina [1, 9]: 98%
% Inhibition MAO-B, calculated from activity (nmol/hour/mg protein) [1, 10]: 97%
% Inhibition MAO-B, calculated from dpm [1, 10]: 98%
MAO-B activity, Retina [1, 10]: 15 ± 2
MAO-B dpm ± sd [1, 10]: 15 ± 2 dpm
MAO-B nmol/hour/mg protein ± sd [1, 10]: 0.02 ± 0.00 nmol/hour/mg protein
Percent of MAO-B Inhibition, Retina [1, 11]: 98%
% Inhibition MAO-B, calculated from activity (nmol/hour/mg protein) [1, 12]: 98%
% Inhibition MAO-B, calculated from dpm [1, 12]: 98%
MAO-B activity, Retina [1, 12]: 12 ± 8
MAO-B dpm ± sd [1, 12]: 12 ± 8 dpm
MAO-B nmol/hour/mg protein ± sd [1, 12]: 0.02 ± 0.01 nmol/hour/mg protein
Percent of MAO-B Inhibition, Retina [1, 13]: 98%
Percent of MAO-A Inhibition, Brain [2, 3]: 47%
Percent of MAO-A Inhibition, Brain [2, 5]: 9%
Percent of MAO-A Inhibition, Brain [2, 7]: 22%
Percent of MAO-A Inhibition, Brain [2, 9]: 65%
Percent of MAO-A Inhibition, Brain [2, 11]: 93%
Percent of MAO-A Inhibition, Brain [2, 13]: 97%
Percent of MAO-A Inhibition, Liver [2, 3]: 52%
Percent of MAO-A Inhibition, Liver [2, 5]: −5%
Percent of MAO-A Inhibition, Liver [2, 7]: 7%
Percent of MAO-A Inhibition, Liver [2, 9]: 41%
Percent of MAO-A Inhibition, Liver [2, 11]: 77%
Percent of MAO-A Inhibition, Liver [2, 13]: 94%
% Inhibition MAO-A, calculated from activity (nmol/hour/mg protein) ([2]; P.O 0.41 mg/kg/day, group 7): 54%
% Inhibition MAO-A, calculated from dpm ([2]; P.O 0.41 mg/kg/day, group 7): 40%
MAO-A activity, Retina ([2]; P.O 0.41 mg/kg/day, group 7): 968 ± 147
MAO-A dpm ± sd ([2]; P.O 0.41 mg/kg/day, group 7): 968 ± 147 dpm
Percent of MAO-A Inhibition, Retina [2, 3]: 40%
% Inhibition MAO-A, calculated from activity (nmol/hour/mg protein) [2, 4]: −66%
% Inhibition MAO-A, calculated from dpm [2, 4]: −29%
MAO-A activity, Retina [2, 4]: 1690 ± 215
MAO-A dpm ± sd [2, 4]: 1690 ± 215 dpm
MAO-A nmol/hour/mg protein ± sd [2, 4]: 19.89 ± 0.4 nmol/hour/mg protein
Percent of MAO-A Inhibition, Retina [2, 5]: −29%
% Inhibition MAO-A, calculated from activity (nmol/hour/mg protein) [2, 6]: 14%
% Inhibition MAO-A, calculated from dpm [2, 6]: 35%
MAO-A activity, Retina [2, 6]: 849 ± 136
MAO-A dpm ± sd [2, 6]: 849 ± 136 dpm
MAO-A nmol/hour/mg protein ± sd [2, 6]: 10.33 ± 0.89 nmol/hour/mg protein
Percent of MAO-A Inhibition, Retina [2, 7]: 35%
% Inhibition MAO-A, calculated from activity (nmol/hour/mg protein) [2, 8]: 68%
% Inhibition MAO-A, calculated from dpm [2, 8]: 67%
MAO-A activity, Retina [2, 8]: 435 ± 126
MAO-A dpm ± sd [2, 8]: 435 ± 126 dpm
MAO-A nmol/hour/mg protein ± sd [2, 8]: 3.88 ± 0.59 nmol/hour/mg protein
Percent of MAO-A Inhibition, Retina [2, 9]: 67%
% Inhibition MAO-A, calculated from activity (nmol/hour/mg protein) [2, 10]: 95%
% Inhibition MAO-A, calculated from dpm [2, 10]: 96%
MAO-A activity, Retina [2, 10]: 56 ± 19
MAO-A dpm ± sd [2, 10]: 56 ± 19 dpm
MAO-A nmol/hour/mg protein ± sd [2, 10]: 0.59 ± 0.1 nmol/hour/mg protein
Percent of MAO-A Inhibition, Retina [2, 11]: 96%
% Inhibition MAO-A, calculated from activity (nmol/hour/mg protein) [2, 12]: 97%
% Inhibition MAO-A, calculated from dpm [2, 12]: 97%
MAO-A activity, Retina [2, 12]: 38 ± 10
MAO-A dpm ± sd [2, 12]: 38 ± 10 dpm
MAO-A nmol/hour/mg protein ± sd [2, 12]: 0.4 ± 0.03 nmol/hour/mg protein
Percent of MAO-A Inhibition, Retina [2, 13]: 97%
MAO-A inhibition in retina and brain, intraocular in comparison to oral ([2]; rats, 0.4 mg/kg/day intraocular vs 0.4 mg/kg/day given orally): slightly higher
